What is called Ki is the dissociation constant of the complex between target and ligand, obtained from inhibition or displacement.

The chains behind the UniProt entries cited, without tags or fusion partners.
UniProt P61169, whole entry: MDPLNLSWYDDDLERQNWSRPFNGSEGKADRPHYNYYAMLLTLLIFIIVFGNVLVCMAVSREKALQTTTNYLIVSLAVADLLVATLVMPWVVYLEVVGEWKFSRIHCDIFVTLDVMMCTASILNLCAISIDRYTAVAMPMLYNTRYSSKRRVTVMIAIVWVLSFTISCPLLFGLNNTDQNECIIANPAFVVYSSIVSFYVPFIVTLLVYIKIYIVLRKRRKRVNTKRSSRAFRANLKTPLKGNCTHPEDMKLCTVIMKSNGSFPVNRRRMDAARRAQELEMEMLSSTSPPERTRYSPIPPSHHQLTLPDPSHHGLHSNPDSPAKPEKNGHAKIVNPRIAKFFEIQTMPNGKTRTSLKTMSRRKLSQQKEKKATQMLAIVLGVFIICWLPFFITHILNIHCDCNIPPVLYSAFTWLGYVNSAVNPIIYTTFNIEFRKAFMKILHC

Test [1] deals with D(2) dopamine receptor (Rattus norvegicus, UniProt P61169). The test can be described thus: Displacement of [3H]neomonapride from dopamine D2 receptor in rat corpus striatum.
Test [2] is filed under the species Rattus norvegicus. As to the kind of experiment: Selectivity ratio of […] in rat corpus striatum. The class given is tissue-based.

With `CCCN1CCc2cc(OC)cc3c2[C@H]1Cc1ccccc1-3`, the affinity in test [1], expressed as Ki, was 230 nM. Further, in test [2], the Ratio was greater than 43.

With `CCCOc1cccc2c1-c1cc(O)cc3c1[C@@H](C2)N(C)CC3`, in test [1], the affinity, expressed as Ki, was 230 nM. For the same compound, the Ratio in test [2] came out at 7.8.
